# Assay results: US20110263693A1, “CELASTROL, GEDUNIN, AND DERIVATIVES THEREOF AS HSP90 INHIBITORS” (DANA-FARBER CANCER INSTITUTE, INC., priority 2006, published 2011)
# Tested on: LNCaP cells
substance,measurement,value
avermectin B1 [reference compound],viability screen: viability (% [ATP] normalized to R1881-treated control),53.7%
